Results: ChEMBL document CHEMBL2424579, “Quinazolin-4-one derivatives as selective histone deacetylase-6 inhibitors for the treatment of Alzheimer's disease” (J Med Chem, 2013)

Legend:
Homo sapiens [1] = species on record: Homo sapiens; experiment: Selectivity index, ratio of IC50 for human recombinant HDAC8 to IC50 for human recombinant HDAC6
Homo sapiens [2] = species on record: Homo sapiens; experiment: Selectivity index, ratio of IC50 for human recombinant HDAC1 to IC50 for human recombinant HDAC6

CCc1nc2cc(/C=C/C(=O)NO)ccc2c(=O)n1CCCc1ccccc1
Ratio IC50 (Homo sapiens [1]): 40
Ratio IC50 (Homo sapiens [2]): 97

O=C(/C=C/c1ccc2c(=O)n(CCc3ccccc3)cnc2c1)NO
Ratio IC50 (Homo sapiens [1]): 17
Ratio IC50 (Homo sapiens [2]): 14

CC(C)c1nc2cc(/C=C/C(=O)NO)ccc2c(=O)n1CCc1ccccc1
Ratio IC50 (Homo sapiens [2]): 30

O=C(/C=C/c1ccc2c(=O)n(CCc3ccccc3)c(C3CC3)nc2c1)NO
Ratio IC50 (Homo sapiens [2]): 11

CCc1nc2ccc(Cc3ccc(C(=O)NO)cc3)cc2c(=O)n1CCc1ccccc1
Ratio IC50 (Homo sapiens [1]): 9
Ratio IC50 (Homo sapiens [2]): 95

CCc1nc2cc(F)c(/C=C/C(=O)NO)cc2c(=O)n1CCc1ccccc1
Ratio IC50 (Homo sapiens [1]): 96
Ratio IC50 (Homo sapiens [2]): 243

CCc1nc2cc(Cc3ccc(C(=O)NO)cc3)ccc2c(=O)n1CCc1ccccc1
Ratio IC50 (Homo sapiens [1]): 19
Ratio IC50 (Homo sapiens [2]): 539

CCc1nc2cc(/C=C/C(=O)NO)ccc2c(=O)n1CCc1ccccc1
Ratio IC50 (Homo sapiens [1]): 107
Ratio IC50 (Homo sapiens [2]): 108

CCc1nc2cc(/C=C/C(=O)NO)ccc2c(=O)n1CCc1ccc(OC)cc1
Ratio IC50 (Homo sapiens [1]): 14
Ratio IC50 (Homo sapiens [2]): 44

CCc1nc2cc(/C=C/C(=O)NO)ccc2c(=O)n1CCc1ccc(F)cc1
Ratio IC50 (Homo sapiens [1]): 21
Ratio IC50 (Homo sapiens [2]): 49

Cc1nc2cc(/C=C/C(=O)NO)ccc2c(=O)n1Cc1ccccc1
Ratio IC50 (Homo sapiens [1]): 53
Ratio IC50 (Homo sapiens [2]): 60
